The values that follow come from patent US12667572B2, “Tricyclic compounds useful in the treatment of cancer, autoimmune and inflammatory disorders” (SCHRÖDINGER, INC., priority 2021, dated 2026).

Amino acid sequences for entries named in this document (tags omitted).
UniProt Q9UDY8, whole entry: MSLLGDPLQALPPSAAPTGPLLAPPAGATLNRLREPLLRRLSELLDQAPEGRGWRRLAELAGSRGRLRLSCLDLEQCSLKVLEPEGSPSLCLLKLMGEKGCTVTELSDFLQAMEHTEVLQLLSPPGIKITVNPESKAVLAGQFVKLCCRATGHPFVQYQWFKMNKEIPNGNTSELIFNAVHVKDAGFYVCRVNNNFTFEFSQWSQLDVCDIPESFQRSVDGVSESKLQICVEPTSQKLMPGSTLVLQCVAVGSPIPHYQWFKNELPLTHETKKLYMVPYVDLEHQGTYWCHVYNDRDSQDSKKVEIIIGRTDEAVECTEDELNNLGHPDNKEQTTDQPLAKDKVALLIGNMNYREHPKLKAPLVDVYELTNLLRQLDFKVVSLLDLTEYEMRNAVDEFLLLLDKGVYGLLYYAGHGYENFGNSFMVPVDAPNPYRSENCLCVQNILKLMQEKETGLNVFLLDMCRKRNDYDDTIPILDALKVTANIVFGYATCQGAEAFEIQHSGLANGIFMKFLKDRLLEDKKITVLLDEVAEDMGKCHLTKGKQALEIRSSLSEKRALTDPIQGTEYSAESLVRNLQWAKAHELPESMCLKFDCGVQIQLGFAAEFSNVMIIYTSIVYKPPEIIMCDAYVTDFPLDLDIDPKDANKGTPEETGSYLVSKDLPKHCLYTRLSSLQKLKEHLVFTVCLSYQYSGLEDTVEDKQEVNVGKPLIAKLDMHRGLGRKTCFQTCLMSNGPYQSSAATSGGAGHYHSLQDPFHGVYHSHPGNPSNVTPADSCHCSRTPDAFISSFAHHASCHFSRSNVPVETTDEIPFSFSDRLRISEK

The test addresses full-length MALT1 protein His-MALT1(1-824) (Homo sapiens, UniProt Q9UDY8). Briefly: MALT1 protease assay, Assay 2 (1 nM MALT1, Ac-LRSR-AMC substrate). Particulars: read-out: MALT1 IC50 [nM] Assay 2; 1 nM MALT1, 50 μM Ac-LRSR-AMC, 2 h pre-incubation, 8 hr incubation at RT. Here is the method: MALT1 protease activity was assessed in an in vitro assay using a tetrapeptide as substrate and full-length MALT1 protein His-MALT1(1-824) purified from baculovirus-infected insect cells. The tetrapeptide substrate is Ac-LRSR-AMC (SM Biochemicals) with Km measured at around 100 μM.
The final assay buffer includes 1 nM (Assay 2) or 2 nM (Assay 1) of MALT1 full-length protein, 50 μM Ac-LRSR-AMC substrate, 50 mM Tris pH 7.5, 600 mM Sodium Citrate, 1 mM DTT, 1 mM EDTA, and 0.05% BSA in 384-well plate format using black microtiter square well plates (Optiplate 384-F, Perkin Elmer).
Test compounds were dissolved in 100% DMSO at stock of 10 mM, with final DMSO concentration 0.1%. Test compounds were pre-incubated with MALT1 protein for 2 h at room temperature. Substrate was added after the pre-incubation and fluorescence signal was measured using Envision at excitation 355 nm and emission 460 nm after 8 hr incubation at RT. Increase in the assay signal was linear over this period and proportional with increase in the enzyme content.
The fluorescence units were transformed to percentage of remaining activity by using the high control (HC, median of fluorescence signal from wells containing MALT1 protein, substrate, and DMSO) and low control (LC, median of fluorescence signal from wells with substrate only) with the formula below: […]

As usually defined, the IC50 is the point on the concentration scale where inhibition reaches its midpoint.

On to `O=C(Nc1cnc(-n2nccn2)c(Cl)c1)C1CC2(CC2)c2c1cnc1cc(Cl)nn21` (single isomer, unassigned), for which the IC50 was in the range of 100 to 1000 nM.
